From PMC2866327, “Designed Inhibitors of Insulin-Degrading Enzyme Regulate the Catabolism and Activity of Insulin” (PLoS ONE, 2010) come the findings set out here.

Protein sequences, listed by entry. Tags and fused reporters are not part of them.
UniProt P14735, whole entry: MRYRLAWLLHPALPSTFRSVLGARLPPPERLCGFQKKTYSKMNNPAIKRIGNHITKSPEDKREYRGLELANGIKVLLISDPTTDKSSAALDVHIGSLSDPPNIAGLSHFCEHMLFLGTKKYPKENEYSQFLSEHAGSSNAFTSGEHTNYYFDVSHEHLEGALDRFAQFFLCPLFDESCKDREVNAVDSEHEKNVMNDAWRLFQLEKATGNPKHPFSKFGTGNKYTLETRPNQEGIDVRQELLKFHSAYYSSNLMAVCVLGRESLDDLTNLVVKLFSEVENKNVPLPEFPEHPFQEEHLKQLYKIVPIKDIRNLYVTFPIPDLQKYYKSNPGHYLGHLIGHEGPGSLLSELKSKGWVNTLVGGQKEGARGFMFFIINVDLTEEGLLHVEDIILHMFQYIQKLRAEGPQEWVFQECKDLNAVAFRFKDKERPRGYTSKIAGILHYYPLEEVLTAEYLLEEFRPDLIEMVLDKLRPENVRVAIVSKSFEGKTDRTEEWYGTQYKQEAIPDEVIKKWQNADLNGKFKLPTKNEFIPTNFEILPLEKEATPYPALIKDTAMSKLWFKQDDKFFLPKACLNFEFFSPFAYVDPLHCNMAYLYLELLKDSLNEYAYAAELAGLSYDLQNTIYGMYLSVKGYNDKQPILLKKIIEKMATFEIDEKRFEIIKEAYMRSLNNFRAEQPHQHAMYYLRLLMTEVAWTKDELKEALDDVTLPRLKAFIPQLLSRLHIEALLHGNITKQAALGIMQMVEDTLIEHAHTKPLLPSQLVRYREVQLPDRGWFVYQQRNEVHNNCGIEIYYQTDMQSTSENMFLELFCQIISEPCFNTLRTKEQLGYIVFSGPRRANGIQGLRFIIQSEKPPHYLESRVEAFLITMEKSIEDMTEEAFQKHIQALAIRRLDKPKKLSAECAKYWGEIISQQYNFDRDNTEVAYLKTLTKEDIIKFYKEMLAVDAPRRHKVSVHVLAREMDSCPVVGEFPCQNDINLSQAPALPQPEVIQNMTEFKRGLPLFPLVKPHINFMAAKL

This test concerns the target IDE (Homo sapiens, UniProt P14735). Briefly: In vitro IDE enzymatic assay (hydrolysis of FRET1, SP1, FAβB, 125I-insulin or insulin by HTRF). It is filed as biochemical. The arrangement: made in house; host or cells: bacteria. The conditions noted are these: pure diastereomers based on Phe-Arg-Trp-Glu. On the technique in general: In TR-FRET formats the signal depends on donor and acceptor labels being close together.

In the case of `N=C(N)NCCC[C@H](NC(=O)[C@H](CC(=O)NO)Cc1ccccc1)C(=O)N[C@@H](Cc1c[nH]c2ccccc12)C(=O)N[C@@H](CCC(=O)O)C(N)=O`, the Ki (usually the equilibrium dissociation constant of an inhibitor or competing ligand from its target) turned out to be 4100 nM.

Regarding `N=C(N)NCCC[C@H](NC(=O)[C@@H](CC(=O)NO)Cc1ccccc1)C(=O)N[C@@H](Cc1c[nH]c2ccccc12)C(=O)N[C@@H](CCC(=O)O)C(N)=O`, the affinity, expressed as Ki, was 110 nM.
